Data taken from PubChem BioAssay AID1861 (The Scripps Research Institute Molecular Screening Center, 2009).
Several values for one entry are separate records, joined by “and”; a condition that tells them apart may be missing. Equal entries are not always repeated. The list shows a part of the results, in another mix than the full data. Activity calls are given as the source filed them. No stated cut-off is given here; in the data, active means inhibition above about 16% (passing the limit was not always enough); inactive means the rest.

Amino acid sequences for entries named in this document (tags omitted). A change or cut given only in a name is not applied to a line headed by its entry.
UniProt P48145: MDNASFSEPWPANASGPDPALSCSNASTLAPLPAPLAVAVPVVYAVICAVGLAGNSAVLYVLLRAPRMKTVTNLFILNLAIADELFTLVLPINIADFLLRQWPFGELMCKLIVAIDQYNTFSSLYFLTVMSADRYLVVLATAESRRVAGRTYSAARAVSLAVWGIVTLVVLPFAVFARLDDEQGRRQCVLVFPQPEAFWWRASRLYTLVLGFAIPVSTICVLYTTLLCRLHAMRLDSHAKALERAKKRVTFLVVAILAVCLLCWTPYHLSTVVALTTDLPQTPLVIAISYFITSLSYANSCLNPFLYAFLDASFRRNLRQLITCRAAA

target: Neuropeptides B/W receptor type 1 (Homo sapiens) (UniProt P48145); experiment: GPR7 receptor antagonists, primary screen, cell-based, fluorescence, single concentration (AID 1861); conditions: GPR7-expressing cells, fluorescence antagonist assay; at 4.4 µM; active compounds read high;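 further: cells stimulated with the agonist NPW; 0% = agonist with vehicle and 100% = vehicle without agonist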

| SMILES | inhibition |
| --- | --- |
| CC(C)(C)C(=O)NC(Sc1ccccc1)C(Cl)(Cl)Cl (centres undefined) | inactive: -14.6% |
| CCOc1ccc(C2=NCC(CBr)S2)cc1 (centres undefined) | inactive: -4.45% |
| O=P1(Nc2nc3ccc(Cl)cc3s2)COc2ccccc2O1 (centres undefined) | inactive: -3.65% |
| CC(=O)Nc1ccc(Oc2c([N+](=O)[O-])cc([N+](=O)[O-])cc2[N+](=O)[O-])cc1 | inactive: -12.2% |
| CC(=O)Nc1ccc([As](=O)(O)O)c(O)c1 | inactive: 3.09% |
| CC(=O)c1ccc(N2CC2c2ccncc2)cc1 (centres undefined) | inactive: 14.5% |
| Cc1ccc(NP(=O)(Oc2cccc(C)c2)Oc2cccc(C)c2)nc1 | inactive: 19.6% |
| CCOC(=O)NC(Sc1ccccc1)C(Cl)(Cl)Cl (centres undefined) | inactive: 4.25% |
| c1ccc(-c2nn[nH]n2)c(-c2nn[nH]n2)c1 | inactive: -0.14% |
| CCNC(=S)/N=C(\N)N[N+](=O)[O-] | inactive: -13.9% |
| O=C(NC1CCS(=O)(=O)C1)NP(=S)(Oc1ccccc1)Oc1ccccc1 (centres undefined) | inactive: -14.4% |
| CN(C)C(=O)Oc1noc2ccccc12 | inactive: -8.85% |
| O=c1c2cc([N+](=O)[O-])ccc2[nH]c2c([N+](=O)[O-])cc([N+](=O)[O-])cc12 | active: 46.1% |
| Cc1ccccc1OP(=O)(Nc1ccccn1)Oc1ccccc1C | inactive: -10.1% |
| CCC(=O)N1C2C3N(C(=O)CC)C1C1N(C(=O)CC)C(C(N1C(=O)CC)N3C(=O)CC)N2C(=O)CC | inactive: -3.12% |
| O=C(OC1CN2CCC1CC2)c1ccccc1 (centres undefined) | inactive: 13.3% |
| CC(=O)NC(SC(=S)N(CC(C)C)CC(C)C)C(Cl)(Cl)Cl (centres undefined) | inactive: 3.43% |
| Cc1ccc(OP(=O)(Nc2ccccn2)Oc2ccc(C)cc2)cc1 | inactive: 12.3% |
| COC(=O)c1cc2c(s1)N=C(c1ccccc1)N(C)P2(=O)N1CCOCC1 (centres undefined) | inactive: -15.7% |
| O=P(Nc1nc2ccccc2s1)(c1ccccc1)c1ccccc1 | inactive: -4.66% |
| O=P(Nc1ccccn1)(c1ccc(Br)cc1)c1ccc(Br)cc1 | inactive: -1.6% |
| CN(C)C1(CNC(=O)c2ccc(Cl)c(S(N)(=O)=O)c2)CCCCC1 | inactive: -6.5% |
| O=C(OC1CN2CCC1CC2)c1cccc(Cl)c1 (centres undefined) | inactive: -14.5% |

| SMILES | inhibition |
| --- | --- |
| Nc1ccc([As](=O)(O)c2ccc([N+](=O)[O-])cc2)cc1 | inactive: 10.7% |
| C(Cc1nn[nH]n1)Cc1nn[nH]n1 | inactive: -2.58% |
| O=[As](O)(c1ccccc1)c1ccc(O)cc1 | inactive: 1.5% |
| O=[N+]([O-])c1ccc(O)c(/C=N/Nc2ccc([N+](=O)[O-])cc2[N+](=O)[O-])c1 | inactive: 1.47% |
| CC(=O)NC(SC(=S)N(C)C)C(Cl)(Cl)Cl (centres undefined) | inactive: -2.78% |
| O=[N+]([O-])c1ncn(CCn2cnc([N+](=O)[O-])n2)n1 | inactive: -4.51% |
| c1nnnn1CCn1cnnn1 | inactive: -6.51% |
| CC(C)C(=O)NC(Sc1ccccc1)C(Cl)(Cl)Cl (centres undefined) | inactive: -3.19% |
| O=P(Nc1nccs1)(c1ccccc1)c1ccccc1 | inactive: -6.45% |
| CCc1nc2c(n1)c1c(non1O)c1c2no[n+]1[O-] | inactive: -11.9% |
| O=[N+]([O-])c1cc([N+](=O)[O-])c(CCNc2ccccc2)c([N+](=O)[O-])c1 | inactive: -11.2% |
| Cc1ccc(NP(=O)(Oc2ccccc2)Oc2ccccc2)nc1 | inactive: -9.43% |
| O=[N+]([O-])c1cccc2n[nH]nc12 | inactive: -12.9% |
| CC(=O)N1C2C3N(C(C)=O)C1C1N(C(C)=O)C(C(N1C(C)=O)N3C(C)=O)N2C(C)=O | inactive: -1.63% |
| COc1ccc(C2=NCC(CBr)S2)cc1 (centres undefined) | inactive: -9.51% |
| CC1CCN(C(=O)Oc2c(Cl)cc(Cl)c3cccnc23)CC1 | inactive: 6.99% |
| CN(C)C(=O)OCCc1n(C)cc[n+]1C | inactive: -14.3% |
| CC(C)=N/N=C(\N)N[N+](=O)[O-] | inactive: 5.16% |
| CCN(/C(=N/P(=O)(N1CCOCC1)N1CCOCC1)N1CCOCC1)c1ccc(OC)cc1 | inactive: -0.38% |
| C[N+]1=C2C=CC=CC=C2SC12C([N+](=O)[O-])=CC([N+](=O)[O-])=C[C-]2[N+](=O)[O-] (centres undefined) | inactive: 0.66% |
| Nc1ccc([As](=O)(O)c2ccc(N)cc2)cc1 | inactive: 1.43% |
| O=C(Nc1cc([As](=O)(O)O)ccc1O)c1ccccc1 | inactive: -3.52% |
| O=C(O)CNc1ccc([As](=O)(O)O)cc1 | inactive: -12.9% |

| SMILES | inhibition |
| --- | --- |
| O=[N+]([O-])c1cccc(NC2=NCC(CBr)S2)c1 (centres undefined) | inactive: -2.36% |
| O=[N+]([O-])c1ncn(CCn2ncnc2[N+](=O)[O-])n1 | inactive: 4.13% |
| CC(C)(C)C(=O)NC(Sc1ccncn1)C(Cl)(Cl)Cl (centres undefined) | inactive: -7.67% |
| Cc1ccc(NP(=O)(Oc2ccccc2F)Oc2ccccc2F)nc1 | inactive: -3.94% |
| CCOP(=O)(Nc1ccccc1)OCC | inactive: -11% and inactive: -11.1% |
| Cc1cc(SC(NC(=O)c2ccc(F)cc2)C(Cl)(Cl)Cl)ncn1 (centres undefined) | inactive: 1.76% |
| O=P(Nc1nc2ccc(Cl)cc2s1)(c1ccccc1)c1ccccc1 | inactive: -6.92% |
| O=C(O)c1ccccc1[As](=O)(O)O | inactive: -8.4% |
| CC(=O)Nc1ccc([As](=O)(O)O)cc1 | inactive: -1.6% |
| Nc1cccc2ccc([As](=O)(O)O)cc12 | inactive: -0.07% |
| CCN(N=Nc1nonc1N)c1nonc1N | inactive: -10.6% |
| O=[N+]([O-])c1cc([N+](=O)[O-])c(CCN2CCOCC2)c([N+](=O)[O-])c1 | inactive: -0.13% |
| Clc1ccc(Cl)c(NC2=NCC(CBr)S2)c1 (centres undefined) | inactive: -12.3% |
| CN1CCCC(OC(=O)C(c2ccccc2)c2ccccc2)C1 (centres undefined) | inactive: -15.4% |
| Cc1ccc(OP(=O)(Nc2nccs2)Oc2ccc(C)cc2)cc1 | inactive: -14.5% |
| COc1ccccc1OP(=O)(Nc1ccc(C)cn1)Oc1ccccc1OC | active: 21.7% |
| Cc1ccc(N/C(=N/P(=O)(N2CCOCC2)N2CCOCC2)N2CCOCC2)cc1 | inactive: 5.85% |
| NC(=O)c1cc([N+](=O)[O-])cc([N+](=O)[O-])c1N | inactive: -1.46% |
| Cc1c2non([O-])c-2c(C)[n+](=O)[n+]1[O-] | inactive: -6.32% |
| O=C(NC(Sc1ccncn1)C(Cl)(Cl)Cl)c1ccccc1 (centres undefined) | inactive: -0.67% |
| Oc1ccccc1CNc1ccccn1 | inactive: 1.47% |
| CC(C)CC(=O)NC(Sc1ccc(Cl)cc1)C(Cl)(Cl)Cl (centres undefined) | inactive: -19.4% |
| Nc1cc(N)c2nonc2c1[N+](=O)[O-] | inactive: -7.33% |
